From PubChem BioAssay AID651687 (Broad Institute, 2012)
The list shows a part of the results, in another mix than the full data. The source made the active and inactive calls.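 Rule for the calls: active = every replicate shows inhibition of at least 40%; inconclusive = mean inhibition at least 40% but some replicate below; inactive = the rest.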

assay: compounds lowering acetylated PGC1a in cells – cell-based, U2OS, AlphaScreen, inhibitor mode, primary screen (AID 651687); details: U2OS PGC1a acetylation, AlphaScreen anti-acetyl-lysine; at 15.6 µM; stronger effect = higher value; with virally co-expressed GCN5 acetyltransferase;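 note: 0% = neutral control wells and 100% = positive control wells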

Compound	inhibition
Cc1cc(=O)[nH]c(N[N+](=O)[O-])n1	inactive: 8.62%
O=C(OC1CN2CCC1CC2)C12CC3CC(CC(C3)C1)C2 (stereo not drawn)	inactive: -14.2%
COc1cc(I)ccc1[As](=O)(O)O	inactive: 2.15%
O=P1(N(CCCl)CCCl)Nc2ccccc2N1	inactive: -2.46%
COc1ccc(CN2/C(=N\P(=O)(Oc3ccccc3)Oc3ccccc3)Cc3ccccc3C2C2CC2)cc1 (stereo not drawn)	inactive: -1.04%
COc1ccc(N/C(=N/P(=O)(N2CCOCC2)N2CCOCC2)N2CCOCC2)cc1	inactive: -8.39%
O=[N+]([O-])c1cc(Oc2ccc([N+](=O)[O-])cc2C(F)(F)F)cc([N+](=O)[O-])c1	inactive: 0.951%
COc1cc(C(=O)NCC2(N3CCOCC3)CCCCC2)ccc1OCC(C)C	inactive: -6.38%
O=[N+]([O-])c1ccc(-c2cc([N+](=O)[O-])c(O)c([N+](=O)[O-])c2)cc1	inactive: -7.98%
O=[As](O)(c1ccc(O)cc1)c1ccccc1O	inactive: -0.713%
Cc1ccc(OP(=O)(Nc2ccc([N+](=O)[O-])cn2)Oc2ccc(C)cc2)cc1	inactive: 4.45%
CC(C)c1ccc(OP(=O)(Nc2ccccn2)Oc2ccccc2F)cc1 (stereo not drawn)	inactive: 16.5%
COC(=O)C1(C)COP(=O)(N2CCCCCC2)OC1 (stereo not drawn)	inactive: 3.76%
ClCCSc1nnc(-c2cccnc2)o1	inactive: 4.29%
CCN(CC)C(=S)SC(NC=O)C(Cl)(Cl)Cl (stereo not drawn)	inactive: -1.99%
O=C(OC1CN2CCC1CC2)c1cccc2[nH]cnc12 (stereo not drawn)	inactive: 6.1%
CC(C)NC(=O)NP(=O)(Oc1ccccc1)Oc1ccccc1	inactive: -7.45%
O=C(O)C(O)c1ccc(N(CCCl)CCCl)cc1 (stereo not drawn)	inactive: 11.6%
CCOC(=O)Nc1ccc([As](=O)(O)O)c(O)c1	inactive: 9.69%
COP(=O)(OC)N1CC1c1ccccc1 (stereo not drawn)	inactive: 9.62%
O=P(Nc1ccccn1)(c1cccc2ccccc12)c1cccc2ccccc12	inactive: 0.838%
COP1(=S)c2c(C)nn(CCC#N)c2N=C(c2ccc(F)cc2)N1C (stereo not drawn)	inactive: -1.27%
O=C(Nc1ccncc1[N+](=O)[O-])c1ccc([N+](=O)[O-])cc1[N+](=O)[O-]	inactive: 13.1%
O=C(COc1ccccc1)OC1CN2CCC1CC2 (stereo not drawn)	inactive: 0.538%
O=C(O)C(=O)c1ccc(N(CCCl)CCCl)cc1	inactive: -2.72%

Compound	inhibition
CCOC(=O)c1ccc(NC(=O)C(C)(CCl)SC)cc1 (stereo not drawn)	inactive: 8.58%
CSc1ccc(Nc2c([N+](=O)[O-])cc([N+](=O)[O-])cc2[N+](=O)[O-])cc1	inactive: 1.04%
O=C(OC1CN2CCC1CC2)c1cccc([N+](=O)[O-])c1 (stereo not drawn)	inactive: 3.7%
CCC(C)N(CC(C)C)C(=S)SC(NC(C)=O)C(Cl)(Cl)Cl (stereo not drawn)	inactive: 7.39%
CN(CCCl)Cc1cc(Cl)c(NC2=NCCN2)c(Cl)c1	inactive: -7.43%
O=P1(Nc2ccccn2)COc2ccccc2OC1	inactive: -0.214%
CC(C)(C)C(=O)NC(Sc1ncccn1)C(Cl)(Cl)Cl (stereo not drawn)	inactive: -1.27%
O=P1(N(CCCl)CCCl)NCCC(C(F)(F)F)O1 (stereo not drawn)	inactive: 0.675%
CC1(CBr)Cn2c(nc3ccccc3c2=O)S1 (stereo not drawn)	inactive: -19.4%
CN(C(=O)Cc1ccc(Cl)c(Cl)c1)[C@@H]1CCCC[C@H]1N1CCCC1	inactive: 8.54%
CC(C)/C=N\N=C(\N)N[N+](=O)[O-]	inactive: 3.42%
Cc1ccc(C(=O)OC2CN3CCC2CC3)cc1 (stereo not drawn)	inactive: 6.61%
CC1CCC(C(C)C)C(OP(=O)(Nc2ccccn2)c2ccccc2)C1 (stereo not drawn)	inactive: 2.16%
Cc1nn(-c2ccccc2)c2c1P(=O)(N1CCOCC1)N(C)C(c1ccccc1)=N2 (stereo not drawn)	inactive: 7.13%
CCCC1OP(=O)(Nc2ccccc2)OCC1CC (stereo not drawn)	inactive: -4.31%
O=C(/C=C/c1ccccc1)OC1CN2CCC1CC2 (stereo not drawn)	inactive: -1.73%
CN(C)C1(CNC(=O)c2ccc(S(C)(=O)=O)cc2)CCCCC1	inactive: 7.47%
O=P1(Nc2ncccn2)COc2ccccc2OC1	inactive: 6.53%
Cc1ccc(S(=O)(=O)N(CCCN)CCCc2c(C)nc(N)[nH]c2=O)cc1	inactive: -14.8%
NS(=O)(=O)c1cccc(NC(=O)COC(=O)C(O)(c2ccccc2)c2ccccc2)c1	inactive: 1.42%
O=P1(Nc2ccc(Br)cn2)COc2ccccc2OC1	inactive: 1.28%
Cc1ccc(OCC(=O)OC2CN3CCC2CC3)cc1 (stereo not drawn)	inactive: 0.232%
Nc1cccc([As](=O)(O)c2ccccc2)c1	inactive: -6.63%
CS(=O)(=O)c1cc([N+](=O)[O-])c2no[n+]([O-])c2c1	inactive: -0.412%
O=P(Nc1nccs1)(c1ccccc1)c1nc2ccccc2s1 (stereo not drawn)	inactive: -1.49%

Compound	inhibition
CCOP1(=S)c2c(C)nn(CCC#N)c2N=C(c2ccccc2F)N1C (stereo not drawn)	inactive: -1.04%
Nc1ccccc1[As](=O)(O)c1ccccc1	inactive: 5.3%
CN(C(=O)Cc1ccc(Cl)c(Cl)c1)[C@H]1CC[C@@]2(CCCO2)C[C@@H]1N1CCCC1	inactive: -4.65%
CN(C)C(=O)c1cc([N+](=O)[O-])cc2c1-c1c(cc([N+](=O)[O-])cc1[N+](=O)[O-])C2=O	inactive: 31.8%
O=[N+]([O-])c1ccc2c(c1)nnn2O	inactive: -0.111%
CCOP1(=S)c2c(C)nn(CCC#N)c2N=C(c2ccc(F)cc2)N1C (stereo not drawn)	inactive: 36.9%
CN(C(=O)Cc1ccccc1)[C@@H]1CC[C@]2(CCCO2)C[C@H]1N1CCCC1	inactive: -3.01%
COc1cc(C(=O)NCC2(N3CCOCC3)CCCCC2)cc(Cl)c1OC(C)C	inactive: -5.64%
O=[As](O)(O)c1cccnc1	inactive: -2.66%
O=C(OC1CN2CCC1CC2)c1ccc(Cl)cc1 (stereo not drawn)	inactive: -4.75%
O=[As](O)(c1cccc(O)c1)c1cccc(O)c1	inactive: 5.66%
Cc1cccc(OCC(=O)OC2CN3CCC2CC3)c1 (stereo not drawn)	inactive: -7.13%
Cc1ccc(NCCc2c([N+](=O)[O-])cc([N+](=O)[O-])cc2[N+](=O)[O-])cc1	inactive: 9.3%
Nc1cccc2c([As](=O)(O)O)cccc12	inactive: 0.521%
O=P1(Nc2nc3ccc(Cl)cc3s2)COc2ccccc2O1 (stereo not drawn)	inactive: 0.019%
CCc1cc(O)c([N+](=O)[O-])c(C)c1[N+](=O)[O-]	inactive: -12.2%
CC(C)(C)C(=O)NC(Sc1ccccc1)C(Cl)(Cl)Cl (stereo not drawn)	inactive: -43.6%
COC(=O)C1(C)COP(=O)(NCc2ccccc2)OC1 (stereo not drawn)	inactive: 6.82%
C[C@@H]1C=CCP(=O)(Oc2ccccc2)O1 (stereo partly drawn)	inactive: 4.06%
Cc1ccccc1CN(C)C(=O)COC(=O)C(O)(c1ccccc1)c1ccccc1	inactive: -19.3%
CC(=O)Nc1ccc(Oc2c([N+](=O)[O-])cc([N+](=O)[O-])cc2[N+](=O)[O-])cc1	inactive: -10.1%
CC(=O)Nc1ccc([As](=O)(O)O)c(O)c1	inactive: -0.864%
O=C(NC1CCS(=O)(=O)C1)NP(=S)(Oc1ccccc1)Oc1ccccc1 (stereo not drawn)	inactive: -7.19%
CCNC(=S)/N=C(\N)N[N+](=O)[O-]	inactive: 6.75%
Cc1ccc(NP(=O)(Oc2cccc(C)c2)Oc2cccc(C)c2)nc1	inactive: -0.347%

Compound	inhibition
c1ccc(-c2nn[nH]n2)c(-c2nn[nH]n2)c1	inactive: 3.09%
O=P1(N(CCCl)CCCl)OCCC2CCCCN21 (stereo not drawn)	inactive: -7.49%
CC(=O)NC(SC(=S)N(CC(C)C)CC(C)C)C(Cl)(Cl)Cl (stereo not drawn)	inactive: -20.8%
Cc1ccc(OP(=O)(Nc2ccccn2)Oc2ccc(C)cc2)cc1	inactive: -1.05%
COC(=O)c1cc2c(s1)N=C(c1ccccc1)N(C)P2(=O)N1CCOCC1 (stereo not drawn)	inactive: 11.6%
CCC(=O)N1C2C3N(C(=O)CC)C1C1N(C(=O)CC)C(C(N1C(=O)CC)N3C(=O)CC)N2C(=O)CC	inactive: 6.57%
O=c1c2cc([N+](=O)[O-])ccc2[nH]c2c([N+](=O)[O-])cc([N+](=O)[O-])cc12	inactive: 3.97%
Cc1ccccc1OP(=O)(Nc1ccccn1)Oc1ccccc1C	inactive: -12.8%
CC(NC(=O)COC(=O)C(O)(c1ccccc1)c1ccccc1)c1ccccc1 (stereo not drawn)	inactive: 2.45%
Nc1ccc(CCCCOc2ccccc2)cc1	inactive: -3.92%
COc1ccc(N)c([N+](=O)[O-])c1[N+](=O)[O-]	inactive: 6.65%
CN(C)C1(CNC(=O)c2ccc(Cl)c(S(N)(=O)=O)c2)CCCCC1	inactive: 3.4%
O=P(Nc1ccccn1)(c1ccc(Br)cc1)c1ccc(Br)cc1	inactive: 26.4%
O=P(Nc1nc2ccccc2s1)(c1ccccc1)c1ccccc1	inactive: 4.77%
CC(=O)NC(SC(=S)N(C)C)C(Cl)(Cl)Cl (stereo not drawn)	inactive: 9.19%
O=[N+]([O-])c1ncn(CCn2cnc([N+](=O)[O-])n2)n1	inactive: -1.01%
O=[N+]([O-])c1ccc(O)c(/C=N/Nc2ccc([N+](=O)[O-])cc2[N+](=O)[O-])c1	inactive: -9.31%
O=[As](O)(c1ccccc1)c1ccc(O)cc1	inactive: -15.6%
Nc1ccc([As](=O)(O)c2ccc([N+](=O)[O-])cc2)cc1	inactive: -2.89%
O=P(Nc1nccs1)(c1ccccc1)c1ccccc1	inactive: -0.82%
c1nnnn1CCn1cnnn1	inactive: -1.66%
COc1ccc(C2=NCC(CBr)S2)cc1 (stereo not drawn)	inactive: -15.8%
CC(=O)N1C2C3N(C(C)=O)C1C1N(C(C)=O)C(C(N1C(C)=O)N3C(C)=O)N2C(C)=O	inactive: 7.26%
